# Measurements: patent US9120761B2, “Selective FAK inhibitors” (priority 2011, dated 2015)
# Chains of the proteins cited; added tags and fusions are not shown.
# UniProt Q05397, whole entry: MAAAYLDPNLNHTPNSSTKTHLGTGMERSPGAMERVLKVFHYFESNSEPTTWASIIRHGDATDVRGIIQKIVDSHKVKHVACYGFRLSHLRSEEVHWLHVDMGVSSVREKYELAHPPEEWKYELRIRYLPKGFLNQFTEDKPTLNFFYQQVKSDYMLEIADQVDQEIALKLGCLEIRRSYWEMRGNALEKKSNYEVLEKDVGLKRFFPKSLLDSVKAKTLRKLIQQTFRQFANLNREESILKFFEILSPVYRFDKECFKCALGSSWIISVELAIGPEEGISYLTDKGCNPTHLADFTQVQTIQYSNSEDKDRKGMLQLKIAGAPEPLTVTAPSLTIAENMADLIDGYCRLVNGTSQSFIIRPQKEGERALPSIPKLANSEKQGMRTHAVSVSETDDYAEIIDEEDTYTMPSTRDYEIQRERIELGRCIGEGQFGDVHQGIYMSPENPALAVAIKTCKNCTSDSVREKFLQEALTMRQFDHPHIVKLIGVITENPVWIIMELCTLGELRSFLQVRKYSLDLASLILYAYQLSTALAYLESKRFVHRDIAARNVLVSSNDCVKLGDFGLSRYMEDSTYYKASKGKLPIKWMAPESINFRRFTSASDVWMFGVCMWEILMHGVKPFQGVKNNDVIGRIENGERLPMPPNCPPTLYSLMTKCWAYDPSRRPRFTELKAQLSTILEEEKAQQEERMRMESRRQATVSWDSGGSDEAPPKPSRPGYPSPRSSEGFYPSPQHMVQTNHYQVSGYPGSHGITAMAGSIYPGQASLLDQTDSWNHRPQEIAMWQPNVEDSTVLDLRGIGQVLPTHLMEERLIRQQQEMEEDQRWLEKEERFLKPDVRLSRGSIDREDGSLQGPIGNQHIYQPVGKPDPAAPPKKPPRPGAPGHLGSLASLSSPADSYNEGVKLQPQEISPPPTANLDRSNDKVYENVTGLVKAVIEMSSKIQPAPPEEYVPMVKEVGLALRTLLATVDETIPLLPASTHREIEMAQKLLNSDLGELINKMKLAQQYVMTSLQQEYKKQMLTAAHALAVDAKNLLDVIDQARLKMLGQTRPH
# Biological target: phosphorylation of Y397-FAK in MDA-231-LNA cells (Homo sapiens (Human), UniProt Q05397)
# Type: cell-based
# Conditions: 1 hour treatment, pFAK-397 levels
row,SMILES,IC50 [nM]
1,"COc1cc(C2CCNCC2)ccc1Nc1ncc(C(F)(F)F)c(CCc2ccccc2CC(N)=O)n1 [Compound 2, 2-(2-(2-(2-((2-Methoxy-4-(piperidin-4-yl)phenyl)amino)-5-(trifluoromethyl)pyrimidin-4-yl)ethyl)phenyl)acetamide]",12
2,"COc1cc(C2CCN(C)CC2)ccc1Nc1ncc(C(F)(F)F)c(CCc2cccc(C(N)=O)c2)n1 [Compound 6, 3-(2-(2-((2-Methoxy-4-(1-methylpiperidin-4-yl)phenyl)amino)-5-(trifluoromethyl)pyrimidin-4-yl)ethyl)benzamide]",264
3,"CN1CCC(c2ccc(Nc3ncc(C(F)(F)F)c(CCc4ccccc4CC(N)=O)n3)c(F)c2)CC1 [Compound 13, 2-(2-(2-(2-((2-Fluoro-4-(1-methylpiperidin-4-yl)phenyl)amino)-5-(trifluoromethyl)pyrimidin-4-yl)ethyl)phenyl)acetamide]",14
4,"CN1CCC(c2ccc(Nc3ncc(C(F)(F)F)c(CCc4ccccc4CC(N)=O)n3)c(OC(F)(F)F)c2)CC1 [Compound 11, 2-(2-(2-(2-((4-(1-Methylpiperidin-4-yl)-2-(trifluoromethoxy)phenyl)amino)-5-(trifluoromethyl)pyrimidin-4-yl)ethyl)phenyl)acetamide]",16
5,"NC(=O)Cc1ccccc1CCc1nc(Nc2ccc(C3CCNCC3)cc2OC(F)(F)F)ncc1C(F)(F)F [Compound 10, 2-(2-(2-(2-((4-(Piperidin-4-yl)-2-(trifluoromethoxy)phenyl)amino)-5-(trifluoromethyl)pyrimidin-4-yl)ethyl)phenyl)acetamide]",114
6,"COc1cc(N2CCNCC2)ccc1Nc1ncc(C(F)(F)F)c(CCc2ccccc2CC(N)=O)n1 [Compound 1, 2-(2-(2-(2-((2-Methoxy-4-(piperazin-1-yl)phenyl)amino)-5-(trifluoromethyl)pyrimidin-4-yl)ethyl)phenyl)acetamide]",9
7,"COc1cc(C2CCN(C)CC2)ccc1Nc1ncc(C(F)(F)F)c(CCc2ccccc2CC(N)=O)n1 [Compound 3, 2-(2-(2-(2-((2-Methoxy-4-(1-methylpiperidin-4-yl)phenyl)amino)-5-(trifluoromethyl)pyrimidin-4-yl)ethyl)phenyl)acetamide]",7
8,"CCN1CCC(c2ccc(Nc3ncc(C(F)(F)F)c(CCc4ccccc4CC(N)=O)n3)c(OC)c2)CC1 [Compound 4, 2-(2-(2-(2-((4-(1-Ethylpiperidin-4-yl)-2-methoxyphenyl)amino)-5-(trifluoromethyl)pyrimidin-4-yl)ethyl)phenyl) acetamide]",13
